For one molecule, Kd results are on record in article PMC10223898, “Discovery of AI-2 Quorum Sensing Inhibitors Targeting the LsrK/HPr Protein–Protein Interaction Site by Molecular Dynamics Simulation, Virtual Screening, and Bioassay Evaluation” (Pharmaceuticals, 2023).

Assay [1] concerns the target T1, LsrK (S. typhimurium, UniProt Q8ZKQ6 1-530).
T1 construct: LsrK (autoinducer-2 kinase) of S. typhimurium; the LsrK encoding gene was amplified and cloned with BamHI and XhoI into pET-28a; cloning with BamHI/XhoI into pET-28a may also add vector-encoded N-terminal residues (surmise); The cited crystal structure PDB 5YA1 of LsrK/HPr served only for modelling; also called His-tagged LsrK; source: E. coli BL21(DE3), pET-28a, purified (Ni-NTA, dialysis); not …
T1 sequence (looked up): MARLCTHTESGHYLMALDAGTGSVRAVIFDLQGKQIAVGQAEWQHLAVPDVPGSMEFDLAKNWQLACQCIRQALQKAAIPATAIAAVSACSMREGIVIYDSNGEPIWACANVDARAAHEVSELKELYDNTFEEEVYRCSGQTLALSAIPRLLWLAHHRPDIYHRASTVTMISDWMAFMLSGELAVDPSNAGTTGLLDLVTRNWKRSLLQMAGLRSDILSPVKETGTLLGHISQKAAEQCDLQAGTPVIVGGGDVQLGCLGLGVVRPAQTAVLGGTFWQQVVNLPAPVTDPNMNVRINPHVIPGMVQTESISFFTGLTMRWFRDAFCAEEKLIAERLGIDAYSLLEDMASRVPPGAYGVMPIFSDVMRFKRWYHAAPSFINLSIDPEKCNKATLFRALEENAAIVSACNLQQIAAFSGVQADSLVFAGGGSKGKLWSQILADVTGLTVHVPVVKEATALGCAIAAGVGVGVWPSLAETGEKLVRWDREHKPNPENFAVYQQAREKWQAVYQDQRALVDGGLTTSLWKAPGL
In words: SPR. The following applies: both partners purified.

In assay [2] the target is T2, LsrK-N protein (HPr-binding domain of LsrK, residues 1-260) (S. typhimurium, UniProt Q8ZKQ6 1-260).
T2 construct: cloning with BamHI/XhoI into pET-28a may also add vector-encoded N-terminal residues (surmise); also called N-terminal domain; source: E. coli BL21(DE3), pET-28a, purified (Ni-NTA, dialysis); not shown: His6, C-terminal, kept
T2 sequence (looked up): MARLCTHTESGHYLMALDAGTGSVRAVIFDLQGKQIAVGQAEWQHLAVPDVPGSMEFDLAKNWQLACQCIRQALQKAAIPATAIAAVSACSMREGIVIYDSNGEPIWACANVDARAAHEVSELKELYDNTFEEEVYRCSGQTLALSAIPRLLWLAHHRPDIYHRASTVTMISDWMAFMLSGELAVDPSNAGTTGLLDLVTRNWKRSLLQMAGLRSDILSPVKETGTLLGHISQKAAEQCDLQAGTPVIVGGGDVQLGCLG
Briefly: SPR. The following applies: both partners purified.

B1: HPr (natural protein)
chain: not shown
notes: HPr (phosphocarrier protein of the PTS) of S. typhimurium; the HPr encoding gene was amplified and cloned with EcoRI and NotI into pGEX-4T-1; No cleavage of the GST tag is described; the protein was eluted with glutathione and concentrated, so GST was probably still attached in the SPR assay (surmise); source: E. coli BL21(DE3), pGEX-4T-1, purified (GST Gravity column, eluted with glutathione, …)
By Kd is commonly meant the constant that tells how readily two partners part at equilibrium. Higher therefore signals a looser complex. On to B1, for which the values for the Kd in assay [1] and in assay [2] were 70.5 nM and 97.7 nM, respectively.
